{"source": "paper PMC8093215", "about": "(Nature Communications, 2021)", "conditions_in_all_cases": "both partners purified", "key": {"[1]": {"target": "T1, JMJD2A Tudor domain (amino acids 894-1011) (human, UniProt O75164 894-1011)", "T1 construct": "JMJD2A (KDM4A), Tudor domain, amino acids 894-1011; also called JMJD2ATD; source: E. coli BL21(DE3) RIL, purified (nickel column, ULP1 cleavage, anion exchange, nickel, SEC); not shown: His6-SUMO, N-terminal, cleaved", "T1 sequence (looked up)": "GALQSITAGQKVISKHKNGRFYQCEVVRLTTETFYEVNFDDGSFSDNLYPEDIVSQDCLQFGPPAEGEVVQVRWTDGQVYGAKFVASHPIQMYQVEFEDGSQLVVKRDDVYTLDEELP", "experiment": "ITC; JMJD2ATD titrated with the H4(14-25)K20me3 peptide; 5 °C; single-site binding mode"}, "[2]": {"target": "T2, human DNMT1 BAH1 domain (residues 728-900), wild type (human, UniProt P26358 728-900)", "T2 construct": "numbering on isoform 1 of 1616 amino acids; modified pRSF-Duet vector; also called hDNMT1_(BAH1), WT; source: E. coli BL21(DE3) RIL, purified (nickel column, ULP1 cleavage, anion exchange, nickel, SEC); not shown: His6-SUMO, N-terminal, cleaved", "experiment": "ITC; 1 mM H4K20me peptide titrated over 0.1 mM hDNMT1 BAH1 or BAH2 domain; 25 mM Tris-HCl pH 7.5, 100 mM NaCl, 2 mM DTT; 5 °C; single-site binding mode"}, "[3]": {"target": "T3, human DNMT1 BAH1 domain (residues 728–900) (human, UniProt P26358 728-900)", "T3 construct": "numbering on isoform 1 of DNMT1 with 1616 amino acids; modified pRSF-Duet vector; also called hDNMT1_(BAH1); source: E. coli BL21(DE3) RIL, purified (Ni, ULP1 cleavage, Q XL, Ni, SEC); not shown: His6-SUMO, N-terminal, cleaved", "experiment": "ITC; 1 mM H4K20me peptide titrated over 0.1 mM hDNMT1 BAH1; 5 °C; 25 mM Tris-HCl pH 7.5, 100 mM NaCl, 2 mM DTT; single-site fit"}, "MBP-hDNMT1(351–1600)": {"target": "T4, MBP-hDNMT1(351–1600) (human, UniProt P26358 351-1600)", "T4 construct": "numbering on isoform 1 of DNMT1 with 1616 amino acids; also called WT; source: E. coli BL21(DE3) RIL, purified (Ni, ion exchange, SEC); not shown: His6-MBP, N-terminal, kept"}}}
{"binder": "GAKRHRKVLRDNY (trimethyl-lysine at K20, histone H4, residues 14-25; additional C-terminal tyrosine for spectroscopic quantification; also called H4K20me3 peptide; source: synthetic peptide (LifeTein))", "note": "[H4(14-25)K20me3 peptide]", "values": [{"measurement": "Kd", "setting": "[1]", "value": 0.51, "unit": "µM"}, {"measurement": "stoichiometry N", "setting": "[1]", "value": 0.97}, {"measurement": "stoichiometry N", "setting": "[2]", "value": 0.79}]}
{"binder": "GAKRHRKVLRDNY (monomethyl-lysine at K20, histone H4, residues 14-25; additional C-terminal tyrosine for spectroscopic quantification; source: synthetic peptide (LifeTein))", "note": "[H4(14-25)K20me1 peptide]", "values": [{"measurement": "Kd", "setting": "[2]", "value": 11.4, "unit": "µM"}, {"measurement": "stoichiometry N", "setting": "[2]", "value": 0.74}]}
{"binder": "GAKRHRKVLRDNY (dimethyl-lysine at K20, histone H4, residues 14-25; additional C-terminal tyrosine for spectroscopic quantification; source: synthetic peptide (LifeTein))", "note": "[H4(14-25)K20me2 peptide]", "values": [{"measurement": "stoichiometry N", "setting": "[2]", "value": 0.74}]}
{"binder": "GAKRHRKVLRDNY (trimethyl-lysine at K20, histone H4, residues 14-25; additional C-terminal tyrosine for spectroscopic quantification; also called H4K20me3 peptide; source: synthetic peptide (LifeTein))", "note": "[H4(14–25)K20me3 peptide]", "values": [{"measurement": "Kd", "setting": "[3]", "value": 2.7, "unit": "µM"}, {"measurement": "Kd", "setting": "MBP-hDNMT1(351–1600)", "value": "> 300", "unit": "µM"}]}
{"binder": "GAKRHRKVLRDNY (dimethyl-lysine at K20, histone H4, residues 14-25; additional C-terminal tyrosine for spectroscopic quantification; also called H4K20me2 peptide; source: synthetic peptide (LifeTein))", "note": "[H4(14–25)K20me2 peptide]", "values": [{"measurement": "Kd", "setting": "[3]", "value": 4.1, "unit": "µM"}]}
{"binder": "GAKRHRKVLRDNY (monomethyl-lysine at K20, histone H4, residues 14-25; additional C-terminal tyrosine for spectroscopic quantification; source: synthetic peptide (LifeTein))", "note": "[H4(14–25)K20me1 peptide]", "values": [{"measurement": "Kd", "setting": "[3]", "value": 10.6, "unit": "µM"}]}
